Source: US20040014721A1, “Method for using tethered bis(polyhydroxyphenyls) and O-alkyl derivatives thereof in treating inflammatory conditions of the central nervous system” (Oklahoma Medical Research Foundation, priority 2002, published 2004)

System: TNFα-Stimulated NO2^− Production in EOC-20 Cells
Assay: TNFα-stimulated nitrite (NO2−) production in EOC-20 microglial cells, Griess assay
Format: cell-based
Settings: Mus musculus, 24 h

## Nc1nc2ccc(OC(F)(F)F)cc2s1 [Riluzole]
  IC50: 95 µM
